# Laboratory results published in PubChem BioAssay AID524 (The Scripps Research Institute Molecular Screening Center, 2006).
# Only a part is listed here, and it is no random draw. Some of these compounds have results that are not shown, active ones among them. Activity calls are given as the source filed them.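 How the source made its calls: active means inhibition above the screen-wide mean inhibition plus 3 SD (cut at about 21% in these data); inactive means the rest.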
# Molecular target: cAMP-dependent protein kinase catalytic subunit alpha (Homo sapiens) (UniProt P17612)
# Assay: inhibitors of human PKA kinase activity, primary screen, biochemical, ATP-depletion luminescence, Kemptide substrate (AID 524)
# Conditions: PKA Kemptide phosphorylation, Kinase-Glo ATP luminescence; at 6 µM; stronger effect = higher value
row,SMILES,inhibition
1,O=C(OC1CN2CCC1CC2)C(CO)(c1ccccc1)c1ccccc1 (configuration not stated),inactive: -0.2%
2,CN(C)c1cccc(C(=O)NCC2(N(C)C)CCCCC2)c1,inactive: -4.9%
